Measured values reported in patent US20240325544A1, “CATIONIC LIPID FOR COVALENT MODIFICATION OF PEPTIDES” (PharmalN Corporation, priority 2023, published 2024).

Columns and labels:
[1] = system: cGMP; assay: Plasma cGMP after SC bolus of natriuretic peptides in CD-1 mice (pharmacodynamics, Table 3); assay type: in vivo; settings: SC bolus 1.0 mg/kg (≤0.45 μmol/kg), baseline 10 +/−8 pmol/ml, n = 3-5
Description: (§1) The test articles were formulated or dissolved in sterile water for injection on the same day of administration. […] Blood samples were collected via retro-orbital bleed at 2- and 6-hours post-injection, with two bleedings per animal at two different timepoints. The samples were collected in K2EDTA tubes, processed by centrifugation (2000×g; 15 m 4 eC within 30 minutes after collection), and the resulting plasma samples were stored at −80° C. Biochemical analysis: The plasma concentration of the respective natriuretic peptide was analyzed using commercially available ELISA kits from Phoenix Pharmaceuticals (Burlingame, CA): ANP ELISA (cat #EKE-005-06), BNP ELISA (cat #EKE-011-03), and CNP ELISA (cat #EKE-012-03). […] Plasma cGMP was analyzed using a commercially available kit from Abcam (ab133052, Waltham, MA).

[2] = Plasma concentration of respective natriuretic peptide by ELISA after SC bolus in CD-1 mice (pharmacokinetics, Table 3); settings: male, CD-1, mouse, in vivo, 1 mg/kg
Description: as §1

| Structure (SMILES) | Plasma concentration of cGMP, 2 hr [1] | Plasma concentration of cGMP, 6 hr [1] [pmol/mL] | level at 2 h [2] [ng/mL] | level at 6 h [2] [ng/mL] |
| --- | --- | --- | --- | --- |
| CCCCCCCCCCCCCCCC(=O)NCCOCCOCC(=O)NCCOCCOCC(=O)NCCOCCOCC(=O)N[C@@H](CN)C(=O)N[C@@H](CN)C(=O)N[C@@H](CO)C(=O)N[C@@H](CC(C)C)C(=O)N[C@@H](CCCNC(=N)N)C(=O)N[C@@H](CCCNC(=N)N)C(=O)N[C@@H](CO)C(=O)N[C@@H](CO)C(=O)N[C@H]1CSSC[C@@H](C(=O)N[C@@H](CC(N)=O)C(=O)N[C@@H](CO)C(=O)N[C@@H](Cc2ccccc2)C(=O)N[C@@H](CCCNC(=N)N)C(=O)N[C@@H](Cc2ccc(O)cc2)C(=O)O)NC(=O)CNC(=O)[C@H](CC(C)C)NC(=O)CNC(=O)[C@H](CO)NC(=O)[C@H](CCC(N)=O)NC(=O)[C@H](C)NC(=O)CNC(=O)[C@H]([C@@H](C)CC)NC(=O)[C@H](CCCNC(=N)N)NC(=O)[C@H](CC(=O)O)NC(=O)[C@H](CC(C)C)NC(=O)[C@H](CCCNC(=N)N)NC(=O)CNC(=O)CNC(=O)[C@H](Cc2ccccc2)NC1=O [SEQ ID NO: 45] | 123.82** pmol/mL | 16.18 | – | – |
| CCCCCCCCCCCCCCCC(=O)NCCOCCOCC(=O)NCCOCCOCC(=O)NCCOCCOCC(=O)N[C@@H](CN)C(=O)N[C@@H](CN)C(=O)N[C@@H](CO)C(=O)N[C@@H](CC(C)C)C(=O)N[C@@H](CCCNC(=N)N)C(=O)N[C@@H](CCCNC(=N)N)C(=O)N[C@@H](CO)C(=O)N[C@@H](CO)C(=O)N[C@H]1CSSC[C@@H](C(=O)N[C@@H](CC(N)=O)C(=O)N[C@@H](CO)C(=O)N[C@@H](Cc2ccccc2)C(=O)N[C@@H](CCCNC(=N)N)C(=O)N[C@@H](Cc2ccc(O)cc2)C(=O)O)NC(=O)CNC(=O)[C@H](CC(C)C)NC(=O)CNC(=O)[C@H](CO)NC(=O)[C@H](CCC(N)=O)NC(=O)[C@H](C)NC(=O)CNC(=O)[C@H]([C@@H](C)CC)NC(=O)[C@H](CCCNC(=N)N)NC(=O)[C@H](CC(=O)O)NC(=O)[C@H](CCC(N)=O)NC(=O)[C@H](CCCNC(=N)N)NC(=O)CNC(=O)CNC(=O)[C@H](Cc2ccccc2)NC1=O [SEQ ID NO: 46] | 76.68** pmol/mL | 17.11 | – | – |
| CCCCCCCCCCCCCCCC(=O)NCCOCCOCC(=O)NCCOCCOCC(=O)NCCOCCOCC(=O)N[C@@H](CN)C(=O)N[C@@H](CN)C(=O)N[C@@H](CO)C(=O)N[C@@H](CC(C)C)C(=O)N[C@@H](CCCNC(=N)N)C(=O)N[C@@H](CCCNC(=N)N)C(=O)N[C@@H](CO)C(=O)N[C@@H](CO)C(=O)N[C@H]1CSSC[C@@H](C(=O)N[C@@H](CC(N)=O)C(=O)N[C@@H](CO)C(=O)N[C@@H](Cc2ccccc2)C(=O)N[C@@H](CCCNC(=N)N)C(=O)N[C@@H](Cc2ccc(O)cc2)C(=O)O)NC(=O)CNC(=O)[C@H](CC(C)C)NC(=O)CNC(=O)[C@H](CO)NC(=O)[C@H](CCC(N)=O)NC(=O)[C@H](C)NC(=O)CNC(=O)[C@H]([C@@H](C)CC)NC(=O)[C@H](CCCNC(=N)N)NC(=O)[C@H](CC(=O)O)NC(=O)[C@H](CCSC)NC(=O)[C@H](CCCNC(=N)N)NC(=O)CNC(=O)CNC(=O)[C@H](Cc2ccccc2)NC1=O [SEQ ID NO: 47] | 52.05 pmol/mL | 8.00 | 67.1 | 37.2 |

Marks after values point to notes of the source that are not given here.
